Target: D(2) dopamine receptor (Rattus norvegicus, UniProt P61169)
Assay: Displacement of [3H]spiperone from dopamine D2 receptor in Sprague-Dawley rat striatum homogenate after 30 mins by liquid scintillation counting

Protein sequences, listed by entry. Tags and fused reporters are not part of them.
UniProt P61169, whole entry: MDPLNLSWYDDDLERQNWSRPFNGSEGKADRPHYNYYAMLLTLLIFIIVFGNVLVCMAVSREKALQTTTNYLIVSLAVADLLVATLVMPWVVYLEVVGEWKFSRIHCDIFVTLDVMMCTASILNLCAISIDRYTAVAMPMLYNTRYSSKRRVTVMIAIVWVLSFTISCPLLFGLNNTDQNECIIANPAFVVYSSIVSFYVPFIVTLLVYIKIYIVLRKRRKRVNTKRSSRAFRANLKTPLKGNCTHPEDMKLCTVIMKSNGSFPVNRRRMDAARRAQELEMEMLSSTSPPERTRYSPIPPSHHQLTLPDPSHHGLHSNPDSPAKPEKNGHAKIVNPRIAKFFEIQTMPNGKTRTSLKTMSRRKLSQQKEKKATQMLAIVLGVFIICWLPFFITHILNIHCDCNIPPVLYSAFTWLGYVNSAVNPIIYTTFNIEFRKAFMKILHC

With `O=c1oc2cc(OCCCCN3CCN(c4nsc5ccccc45)CC3)ccc2c2c1CCC2` the Ki was 522 nM.

From ChEMBL document CHEMBL3120114, “Synthesis and evaluation of new coumarin derivatives as potential atypical antipsychotics” (Eur J Med Chem, 2014)
